# Data reported in patent publication US20260382581A1, “COMPOSITIONS COMPRISING CYTISINE IN THE TREATMENT AND/OR PREVENTION OF ADDICTION IN SUBJECTS IN NEED THEREOF” (published 2026).
# Experiments:
# adult smokers [1] = assay: ORCA-2: verified 7-day point-prevalence abstinence; conditions: both cytisinicline arms, throughout active treatment
# Description: (§1) The study had two primary endpoints. They assessed whether cytisinicline produced greater biochemically-confirmed continuous smoking abstinence when compared to placebo during the last 4 weeks of the 6-week treatment (weeks 3 to 6 for Arms B vs. A) and the 12-week treatment (weeks 9 to 12 for Arms C vs. A). Study success was defined as either primary endpoint meeting statistical criterion. The secondary outcome measures were verified continuous cigarette abstinence to week 24 (weeks 3 to 24 for Arms B vs. A; weeks 9 to 24 for Arms C vs. A). A third secondary outcome measure compared the risk of relapse to smoking between weeks 6 and 24 among participants assigned to cytisinicline who achieved abstinence by week 6; these individuals were either switched to placebo at week 6 (Arm B) or continued cytisinicline to week 12 (Arm C). Other pre-specified endpoints included comparing the difference between arms in verified 7-day point-prevalence abstinence at each visit from week 2 through week 24 and assessing for evidence of effect modification for subsets defined by baseline attributes. To assess cigarette craving between groups, the Brief Questionnaire of Smoking Urges (QSU-brief) was administered at clinic visits on Day 0 and at Weeks 1 to 6 (4, 5). […]
# adult smokers [2] = assay: ORCA-1: CO-confirmed quit rate at Week 4 and continuous abstinence Weeks 5-8; conditions: for Quit Rate / abstinence, End-of-Treatment Week 4 / Quit Rate, Continuous Abstinence Weeks 5 to 8 (4 weeks off treatment): 3.0 mg TID
# Procedure: This was a six-arm, multi-center, double-blind, randomized, placebo-controlled study conducted in male or female adults≥18 years of age, smoking 10+ cigarettes daily, and willing to set a quit date that is 5-7 days after randomization. This study was designed to evaluate the effectiveness of 1.5 mg of cytisine versus placebo using the commercial titration schedule approved in Central and Eastern Europe. The study also evaluated the effectiveness of a simplified TID dosing schedule for 1.5 mg and an increased dose of 3.0 mg (using both the commercial titration (COM) and simplified TID dosing schedules). The overall goal of the study was to obtain estimates of effect size for efficacy and safety endpoints that will be used to inform the design of future Phase 3 studies.
# The secondary efficacy endpoint was the quit rate (confirmed by CO<10 ppm) and included an analysis at week 4 (i.e., the end of treatment) and sustained (4-week) abstinence from Week 5 to Week 8 (i.e., off treatment).
# The primary outcome (Cigarette Score) and the main secondary abstinence outcomes were subjected to sensitivity analyses. The main secondary abstinence outcomes were the initial quit rate at Week 4 and continued 4-week abstinence through Week 5 to Week 8, confirmed by expired carbon monoxide (CO) of <10 ppm designated as Cess/W5-8/CO Success. The objective was to assess the robustness of the findings from the trial, and to perform alternative analyses that might either confirm the observed results or challenge the conclusions of the trial.
# [3] = ORCA-1: expired carbon monoxide (CO) levels; conditions: cytisine-treated arms, regardless of schedule
# Procedure: Expired carbon monoxide (CO) levels were also measured during this study as an objective biochemical marker for reduction in smoking. In all cytisine-treated arms, the reduction in carbon monoxide (CO) (55% to 62% reduction) was consistent with the reported reduction in cigarettes smoked (e.g., a range of 25% to 32% as Cigarette Scores represents a 75% to 68% reduction in cigarettes smoking). Conversely, in the placebo-treated arms, the reported reductions in the number of cigarettes smoked (e.g., 41% as the Cigarette Score, representing a 59% reduction in cigarettes smoked) was not paralleled by a corresponding reduction in carbon monoxide (CO) at only 29%.
# Carbon monoxide (CO) levels (ppm) were assessed during the study at screening, baseline, end of study treatment intervention (Week 4), and weekly through Week 8 (FIG. 9). The screening and baseline visits' carbon monoxide (CO) means were approximately equal for all arms. At Week 4, significant reductions in carbon monoxide (CO) levels for all subjects treated in cytisine-treated arms, regardless of schedule, were observed. During the follow-up period (with only behavioral support) from Week 4 through Week 8, the carbon monoxide (CO) means in the pooled placebo arm were approximately constant, although somewhat lower than the means before the start of study treatment intervention.
# adult smokers [4] = assay: ORCA-2: risk of relapse to smoking, weeks 6 to 24
# Description: as §1
smiles,measurement,setting,value
O=c1cccc2n1C[C@@H]1CNC[C@H]2C1,7-day point-prevalence abstinence vs placebo,adult smokers [1],clinically meaningful higher probabilities of biochemically-confirmed 7-day point-prevalence abstinence than placebo
same,"OR, abstinence Weeks 5 to 8",adult smokers [2]; 1.5 mg COM vs placebo,"3.23 (95% CI: 0.86, 14.85)"
same,"OR, quit rate at Week 4",adult smokers [2]; 1.5 mg COM vs placebo,"5.59 (95% CI: 2.03, 16.29)"
same,"OR, abstinence Weeks 5 to 8",adult smokers [2]; 1.5 mg TID vs placebo,"4.33 (95% CI: 1.21, 19.30)"
same,"OR, quit rate at Week 4",adult smokers [2]; 1.5 mg TID vs placebo,"5.81 (95% CI: 2.12, 16.87)"
same,"OR, abstinence Weeks 5 to 8",adult smokers [2]; 3.0 mg COM vs placebo,"2.24 (95% CI: 0.55, 10.82)"
same,"OR, quit rate at Week 4",adult smokers [2]; 3.0 mg COM vs placebo,"5.38 (95% CI: 1.95, 15.72)"
same,"Quit Rate / abstinence, End-of-Treatment Week 4",adult smokers [2]; listed as CYT,54%
same,"Quit Rate, Continuous Abstinence Weeks 5 to 8 (4 weeks off treatment)",adult smokers [2]; listed as CYT,30%
same,"Quit Rate / abstinence, End-of-Treatment Week 4",adult smokers [2]; listed as Cytisinicline,54%
same,"Quit Rate, Continuous Abstinence Weeks 5 to 8 (4 weeks off treatment)",adult smokers [2]; listed as Cytisinicline,30%
same,"Quit Rate / abstinence, End-of-Treatment Week 4",adult smokers [2]; listed as cytisine,54%
same,"Quit Rate, Continuous Abstinence Weeks 5 to 8 (4 weeks off treatment)",adult smokers [2]; listed as cytisine,30%
same,"Drug-placebo difference, quit rate",adult smokers [2]; 4 weeks off treatment,22.2%
same,"OR, quit rate","adult smokers [2]; 4 weeks off treatment vs placebo, 95% CI 1.54 to 16.50",5.0
same,"odds ratios vs NRT, Zyban and Chantix","adult smokers [2]; 4 weeks, end of treatment, 4 weeks off treatment","consistently better than that of NRT, Zyban®, and Chantix®"
same,odds ratios vs Chantix,"adult smokers [2]; 4 weeks, end of treatment, 4 weeks off treatment, 95% CIs overlap",consistently better than that of Chantix®
same,"odds of smoking abstinence at Weeks 6, 7 and 8","adult smokers [2]; TID schedule compared with COM schedule, versus placebo",higher odds of smoking abstinence
same,"Drug-placebo difference, quit rate",adult smokers [2]; end of treatment / 4 weeks treatment,38.3%
same,"OR, quit rate","adult smokers [2]; end of treatment / 4 weeks treatment vs placebo, 95% CI 2.47 to 16.11",6.3
same,continuous abstinence vs commercial 25-day 1.5 mg titration schedule,"adult smokers [2]; methods disclosed (TID dosing), FIG. 7",surprisingly higher
same,CO levels at Week 4,[3],significant reductions in carbon monoxide (CO) levels
same,relapse-free abstinence week 6 to 24,adult smokers [4]; Arm B (switched to placebo at week 6),10.4%
same,relapse-free abstinence week 6 to 24,adult smokers [4]; Arm C (continued to week 12),13.3%
